Series [1] relates to TMD-8 cells. Briefly: TMD-8 cell proliferation inhibitory activity test. The settings on record: read-out: IC50 values for inhibiting TMD-8 cell proliferation, 72 hours, CellTiter-Glo. The protocol:
TMD-8 is a human lymphoma cell line that expresses BTK protein and is used to evaluate the efficacy of compounds. TMD-8 cells were maintained in RPMI-1640 + 10% FBS + 1% penicillin-streptomycin solution, and cultured in a 37°C, 5% CO2 incubator. The cells were seeded into a 96-well culture plate (Biosharp, BS-MP-96W) at a density of 3,000 cells per well. After seeding, compounds at various concentrations were added, with a final volume of 100 µL per well, and the plate was incubated for 72 hours in the 37°C, 5% CO2 incubator. Following incubation, 50 µL of a detection solution (CellTiter-Glo®, Promega, G7573) was added to each well, and the plate was uniformly mixed for 2 minutes and incubated at room temperature for 10 minutes. The chemiluminescence reading was then measured using a microplate reader (Molecular Devices, SpectraMax Paradigm). The inhibition rate of cell proliferation by the compounds was calculated according to Equation (1), where RLU compound represents the readout from the compound-treated well, RLU control represents the readout from the DMSO vehicle control well, and RLU blank represents the readout from the cell-free well. […] The concentration-response curve was generated by fitting the data to a four-parameter equation, and the IC50 values for the compound's inhibition of cell proliferation were calculated. […]
In general terms: ATP-based viability assays read luminescence as a measure of living cells.

By UniProt entry, the sequences of proteins in these tests, tags left out. Where a name states a change or a piece, a line headed by the entry shows the natural chain unless it says otherwise.
UniProt Q06187, whole entry L528W: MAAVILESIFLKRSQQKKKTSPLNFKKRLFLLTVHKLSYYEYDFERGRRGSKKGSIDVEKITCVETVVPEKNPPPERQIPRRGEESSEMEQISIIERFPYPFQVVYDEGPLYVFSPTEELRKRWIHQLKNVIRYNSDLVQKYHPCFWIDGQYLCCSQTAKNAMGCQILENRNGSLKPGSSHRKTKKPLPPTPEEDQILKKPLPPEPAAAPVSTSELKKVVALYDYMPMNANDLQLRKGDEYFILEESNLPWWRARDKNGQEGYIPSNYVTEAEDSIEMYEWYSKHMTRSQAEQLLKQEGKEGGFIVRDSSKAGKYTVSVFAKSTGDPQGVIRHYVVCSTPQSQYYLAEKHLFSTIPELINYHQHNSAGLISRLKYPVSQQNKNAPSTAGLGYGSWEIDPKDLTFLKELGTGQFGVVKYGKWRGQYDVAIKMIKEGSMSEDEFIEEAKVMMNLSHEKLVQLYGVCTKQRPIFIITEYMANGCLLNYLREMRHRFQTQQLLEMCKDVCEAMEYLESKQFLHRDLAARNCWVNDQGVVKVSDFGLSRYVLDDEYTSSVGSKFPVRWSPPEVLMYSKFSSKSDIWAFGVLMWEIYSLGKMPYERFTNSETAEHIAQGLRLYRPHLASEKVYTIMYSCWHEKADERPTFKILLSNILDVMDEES
UniProt Q06187, whole entry: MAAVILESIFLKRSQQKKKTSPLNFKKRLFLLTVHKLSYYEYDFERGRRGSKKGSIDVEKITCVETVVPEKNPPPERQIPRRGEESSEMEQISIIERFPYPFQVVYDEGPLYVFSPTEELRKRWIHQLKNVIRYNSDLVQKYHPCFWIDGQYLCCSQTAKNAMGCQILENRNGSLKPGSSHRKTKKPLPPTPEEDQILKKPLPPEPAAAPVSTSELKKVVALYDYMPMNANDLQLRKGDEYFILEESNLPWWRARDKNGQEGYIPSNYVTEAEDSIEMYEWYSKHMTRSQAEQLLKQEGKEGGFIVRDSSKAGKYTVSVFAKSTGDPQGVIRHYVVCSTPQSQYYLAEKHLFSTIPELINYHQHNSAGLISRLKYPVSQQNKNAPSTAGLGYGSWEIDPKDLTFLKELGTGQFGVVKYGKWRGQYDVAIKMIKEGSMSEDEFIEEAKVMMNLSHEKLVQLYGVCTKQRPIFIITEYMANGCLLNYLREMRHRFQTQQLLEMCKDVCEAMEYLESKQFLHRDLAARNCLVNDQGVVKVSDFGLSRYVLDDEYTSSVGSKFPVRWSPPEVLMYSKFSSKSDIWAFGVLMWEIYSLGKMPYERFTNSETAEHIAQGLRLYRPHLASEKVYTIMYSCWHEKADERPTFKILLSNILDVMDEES

For series [2], the target named is BTK (Homo sapiens, UniProt Q06187). Briefly: Detection of BTK degradation in Mino cells. The conditions noted are these: read-out: DC50 values for BTK degradation in Mino cells, 6 hours, automated western blot.
Series [3] has as its target BTK L528W (Homo sapiens, UniProt Q06187, L528W). Briefly: Detection of BTK degradation in REC-1 BTK L528W mutant cells. The settings on record: for BTK degradation rate %: 5 nM concentration, REC-1 BTK L528W cells, 6 hours; for DC50: read-out: DC50 values for BTK degradation in REC-1 BTK L528W cells, 6 hours, automated western blot. (In general: In western blotting, separated proteins are transferred to a membrane and probed.)

Series [4] has as its system Caco-2 cells. The series can be described thus: Caco2 permeability test. The settings on record: Caco-2 monolayer, 2 µM, 2 hours, pH 7.4.

One may read the DC50 as the midpoint of the concentration-degradation curve. Turning to `CN1CCN([C@@H]2CCCN(c3cnc(C(N)=O)c(Nc4ccc(N5CCC(CN6CCN7c8cc(F)c(C(=O)N[C@H]9CCC(=O)NC9=O)cc8CC[C@H]7C6)CC5)cc4)n3)C2)C1=O`, the IC50 in series [1] was below 20 nM. Besides, the DC50 in series [2] was below 10 nM. In series [3], the “BTK degradation rate %” value is reported as above 90% and the DC50 was below 5 nM. Further, in series [4], the Efflux Ratio stood at 0.481, the “Mean Papp A to B” value is recorded as 2.26 10^-6 cm/s and the “Mean Papp B to A” value is recorded as 1.09 10^-6 cm/s.
As for `CN1CCN([C@@H]2CCCN(c3cnc(C(N)=O)c(Nc4ccc(N5CCC(CN6CCN7c8cc(F)c(C(=O)N[C@H]9CCC(=O)NC9=O)cc8CC[C@@H]7C6)CC5)cc4)n3)C2)C1=O`, in series [1], the IC50 was below 20 nM. The DC50 in series [2] was below 10 nM. Moreover, in series [3], the “BTK degradation rate %” value is recorded as above 90% and the DC50 is below 5 nM. Further, in series [4], the Efflux Ratio came out at 0.296, the “Mean Papp A to B” value is 2.20 10^-6 cm/s and the “Mean Papp B to A” value is reported as 0.652 10^-6 cm/s.

(Values after patent EP4755887A1, “POLYCYCLIC FUSED-RING BTK DEGRADATION AGENT AND USE THEREOF IN MEDICINE” (Haisco Pharmaceutical Group Co., Ltd., priority 2023, dated 2025).)
